The record followed here is PubChem BioAssay AID602412 (Johns Hopkins Ion Channel Center, 2012).

Protein sequences, listed by entry. Tags and fused reporters are not part of them. Lines headed by an entry give the natural chain unless they say otherwise; changes in a name come on top.
UniProt Q96LB2: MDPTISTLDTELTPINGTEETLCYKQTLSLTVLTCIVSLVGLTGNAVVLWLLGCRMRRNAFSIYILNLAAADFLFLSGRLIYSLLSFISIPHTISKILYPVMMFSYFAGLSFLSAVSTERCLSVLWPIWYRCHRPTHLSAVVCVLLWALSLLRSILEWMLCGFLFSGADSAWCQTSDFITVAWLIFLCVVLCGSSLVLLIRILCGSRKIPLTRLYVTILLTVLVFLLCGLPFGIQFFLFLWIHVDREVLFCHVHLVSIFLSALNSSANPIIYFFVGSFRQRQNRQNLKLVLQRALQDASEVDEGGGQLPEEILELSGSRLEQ

The list shows a part of the results, in another mix than the full data. Calls of active or inactive are those of the source.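 The calls were made as follows: active = calcium signal rise, corrected for plate position, at least 3 library SD high, with starting brightness within 5 such deviations; inactive = the rest.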

In this experiment the target is Mas-related G-protein coupled receptor member X1 (Homo sapiens) (UniProt Q96LB2). Put plainly: activators of human MrgX1 calcium signaling – HEK293 cells, Fluo-4 calcium flux, confirmation (AID 602412). As to conditions: MrgX1-HEK293, Fluo-4 calcium fluorescence, FDSS; at 10 µM; hits give high values. Background: A change in cytosolic calcium serves as a functional read-out for many receptors and channels.

Consider `CN(C)C1(CNC(=O)c2ccc(Cl)c(S(N)(=O)=O)c2)CCCCC1`, for which the activation was active: 126%.
